Assay results from ChEMBL document CHEMBL1152082, “Topographical requirements for delta opioid ligands: The synthesis and biological properties of a cyclic analogue of deltorphin I” (Bioorg Med Chem Lett, 1992).

Chains of the proteins cited; added tags and fusions are not shown.
UniProt P32300, whole entry: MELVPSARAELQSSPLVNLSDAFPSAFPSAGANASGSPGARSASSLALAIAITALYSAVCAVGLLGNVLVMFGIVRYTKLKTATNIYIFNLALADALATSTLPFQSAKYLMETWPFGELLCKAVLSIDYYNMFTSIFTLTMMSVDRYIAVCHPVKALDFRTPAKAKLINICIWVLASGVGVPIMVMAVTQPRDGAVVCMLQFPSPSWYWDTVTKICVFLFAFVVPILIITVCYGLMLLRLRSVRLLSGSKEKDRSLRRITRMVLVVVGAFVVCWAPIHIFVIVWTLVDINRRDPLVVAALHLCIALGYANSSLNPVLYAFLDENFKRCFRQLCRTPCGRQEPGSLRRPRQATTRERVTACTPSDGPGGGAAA

Target: Delta-type opioid receptor (Mus musculus, UniProt P32300)
Experiment: Inhibitory activity against Mouse vas deferens smooth muscle
Format: functional, tissue-based, Muscle tissue

CC(NC(=O)[C@@H](N)Cc1ccc(O)cc1)C(=O)N[C@@H](Cc1ccccc1)C(=O)N[C@@H](CC(=O)O)C(=O)N[C@H](C(=O)N[C@H](C(=O)NCC(N)=O)C(C)C)C(C)C (single isomer, unassigned) [DELTORPHIN C]
IC50: 0.11 nM
